# From PubChem BioAssay AID807 (SRMLSC, 2007)
# This is a selection; strong and weak results do not stand in their true shares. Calls of active or inactive are those of the source.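 The calls were made as follows: active = viability increase at or above a cutoff of the median across tested compounds plus 3 SD (cut at about 8.5% in these data, passing the limit was not always enough); inconclusive = some gains above the cutoff, reason not given; inactive = the rest.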
# Assay: doxorubicin toxicity protection in MRP-1 cells – H69AR cells, CellTiter-Glo, duplicate, MRP-1 activator project, pilot screen (AID 807);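 also: compound pretreatment 18-22 h then 72 h combined with doxorubicin; 0% = doxorubicin alone and 100% = vehicle without doxorubicin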
# Details: H69AR viability with doxorubicin, CellTiter-Glo luminescence; at 10 µM; active compounds read high
row,Compound,viability increase
1,Fc1ccccc1NC1CCN(Cc2ccccc2)CC1,inactive: -3.64%
